Source: ChEMBL document CHEMBL1914424, “Evaluation of apoptotic effect of cyclic imide derivatives on murine B16F10 melanoma cells” (Bioorg Med Chem, 2011)

Assays:
Format in all cases: functional, cell-based
[1] = test system: B16-F10; test: Cytotoxicity against mouse B16F10 cells after 24 hrs by MTT assay
[2] = test system: B16-F10; test: Cytotoxicity against mouse B16F10 cells after 72 hrs by MTT assay
[3] = test system: B16-F10; test: Cytotoxicity against mouse B16F10 cells after 48 hrs by MTT assay

| SMILES | inhibition [1] | inhibition [2] | inhibition [3] |
| --- | --- | --- | --- |
| O=C1c2cccc3cccc(c23)C(=O)N1CCc1ccccc1 | Dose-dependent effect |  |  |
| O=C1c2cccc3cccc(c23)C(=O)N1CCc1ccc(S(=O)(=O)N/N=C/c2ccccc2)cc1 | Dose-dependent effect |  |  |
| O=C1c2cccc3cccc(c23)C(=O)N1CCc1ccc(S(=O)(=O)N/N=C/c2ccc([N+](=O)[O-])cc2)cc1 | Dose-dependent effect |  |  |
| O=C1c2cccc3cccc(c23)C(=O)N1c1ccccc1 | Dose-dependent effect |  |  |
| O=C1c2cccc3cccc(c23)C(=O)N1CCc1ccc(S(=O)(=O)N/N=C/c2ccc(O)cc2)cc1 | Dose-dependent effect |  |  |
| O=C1c2cccc3cccc(c23)C(=O)N1Cc1ccccc1 | Dose-dependent effect | Dose-dependent effect | Dose-dependent effect |
| O=C1c2cccc3c(Cl)ccc(c23)C(=O)N1Cc1ccc(S(=O)(=O)N/N=C/c2ccc([N+](=O)[O-])cc2)cc1 | Dose-dependent effect |  |  |
